US20160089321A1, “ANTIPERSPIRANT COMPOSITIONS” (Johnson & Johnson Consumer Inc., priority 2014, published 2016)

Sequences of proteins named here, by UniProt entry; tags and fusion partners are left off. Residues count along the entry.
UniProt P02769, 25-607: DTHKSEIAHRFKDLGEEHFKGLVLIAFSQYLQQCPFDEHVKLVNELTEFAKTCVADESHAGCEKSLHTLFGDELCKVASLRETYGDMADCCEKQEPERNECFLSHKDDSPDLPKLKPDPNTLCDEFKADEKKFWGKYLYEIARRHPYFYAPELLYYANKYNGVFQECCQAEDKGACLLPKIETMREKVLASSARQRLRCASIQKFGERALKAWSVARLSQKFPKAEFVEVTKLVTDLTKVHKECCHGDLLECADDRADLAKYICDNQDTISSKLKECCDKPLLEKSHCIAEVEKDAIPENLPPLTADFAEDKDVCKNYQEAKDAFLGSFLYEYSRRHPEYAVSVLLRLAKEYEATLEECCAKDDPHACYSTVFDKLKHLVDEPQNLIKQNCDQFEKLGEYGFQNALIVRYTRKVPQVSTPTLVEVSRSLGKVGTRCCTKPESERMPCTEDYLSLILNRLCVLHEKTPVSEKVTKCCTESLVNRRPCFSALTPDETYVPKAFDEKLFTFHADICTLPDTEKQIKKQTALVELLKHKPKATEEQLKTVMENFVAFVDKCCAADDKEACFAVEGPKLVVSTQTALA

Molecular target: T1, Bovine serum albumin (BSA) (Bos taurus, UniProt P02769)
T1 construct: add 4 g of albumin (available from Sigma-Aldrich) from bovine serum (BSA) to 2000 mL of buffer solution; purchased Sigma-Aldrich A7906; host or cells: bovine serum (natural source)
Experiment: In vitro active-protein interaction: BSA precipitation by the Bradford method
Type: biochemical
Settings: for Precipitation (BSA): screening test, 10% active solution; for Precipitation (BSA) / % BSA Precipitation: buffer pH 4.9; for % BSA Precipitation: dose-response assay
Procedure: Method 2: In Vitro Study to Evaluate Active-Protein Interaction
Bovine serum albumin (BSA) was used as the reference protein to generate the calibration curve. […] The BSA granular, the BSA solution standard and Bradford reagent were all obtained from Sigma-Aldrich (Catalog Number: A7906, PO834, B6916). The buffer solution was made by adding 875 mL of 0.1 Molar sodium hydroxide (SpecSol) to 125 mL 0.1 Molar potassium dihydrogen phosphate (Merck) and its pH was adjusted to BSA isoelectric point (pH 4.9).
1. Prepare buffer by adding 875 mL of 0.1 Molar sodium hydroxide to 125 mL of 0.1 Molar potassium dihydrogen phosphate, adjusted to pH 4.9. This is the buffer solution used to make the active sample solution, the dose-response curve and the protein solution.
2. To prepare an active sample solution for initial screening, add 5 g of the active material to 50 mL of the buffer solution.
3. To prepare the protein solution, add 4 g of albumin (available from Sigma-Aldrich) from bovine serum (BSA) to 2000 mL of buffer solution.
4. To prepare the reaction solution, add 10 mL of the sample solution (step 2) to 50 mL of the protein solution.
5. To prepare the analytical solution, after filtration through a 0.45 μm membrane, 0.01 mL of reaction solution (step 4) to 3 mL of the Bradford reagent. Measure and record the absorbance at 595 nm. Determine the protein concentration by comparison to the standard curve.

Row | Compound | Precipitation (BSA) [%] | further results
1 | CC(O)C(=O)O.N (stereo not shown) [Ammonium lactate] | 10 | 
2 | CC(O)C(=O)[O-].CC(O)C(=O)[O-].[Ca+2] (stereo not shown) [Calcium lactate] | 8 | 
3 | O=S(=O)([O-])[O-].[Na+].[Na+] [Sodium sulfate] | 9 | 
4 | CC(O)C(=O)[O-].CC(O)C(=O)[O-].[Zn+2] (stereo not shown) [Zinc Lactate (food), zinc lactate] | 5 | 
5 | CC(O)C(=O)[O-].CC(O)C(=O)[O-].[Zn+2] (stereo not shown) [Zinc Lactate (pharma), zinc lactate] | 31 | % BSA Precipitation (1% solution): 9%; % BSA Precipitation (5% solution): 7%; % BSA Precipitation (10% solution): 13%; % BSA Precipitation (15% solution): 18%; Potential to be clogging agents (protein precipitation) (summary of Tables 2 and 3): demonstrated potential to be clogging agents
